Measurements reported in article PMC12655037, “Mitochondrial-Targeted Triphenylphosphonium-Conjugated Ionophores with Enhanced Cytotoxicity in Cancer Cells” (Molecules, 2025).

Assays:
[1] = test system: PC3 human metastatic prostate cancer cells; test: MTT assay, PC3 cells; assay type: cell-based
[2] = test system: SW620 human metastatic colon cancer cells; test: MTT assay, SW620 cells; assay type: cell-based
[3] = test system: A549 human lung cancer cells; test: MTT assay, A549 cells; assay type: cell-based
[4] = test system: SW480 human primary colon cancer cells; test: MTT assay, SW480 cells; assay type: cell-based
[5] = test system: MiaPaCa human pancreas cancer cells; test: MTT assay, MiaPaCa cells; assay type: cell-based; conditions: for IC50: Homo sapiens, MIA PaCa-2, 72 h, read-out: IC50 MiaPaCa
MDA-MB-231 cells [6] = test system: MDA-MB-231 cells
[7] = test system: MDA-MB-231 human breast cancer cells; test: MTT assay, MDA-MB-231 cells; assay type: cell-based; conditions: for IC50: Homo sapiens, MDA-MB-231, 72 h, read-out: IC50 MDA-MB-231
MDA-MB-231 cells [8] = test: MitoTracker Green FM flow cytometry (mitochondrial mass), MDA-MB-231
[9] = test system: SW480, SW620, PC3, MDA-MB-231, A549 and MiaPaCa cancer cell lines; test: cells; assay type: cell-based; conditions: Homo sapiens, 72 h, read-out: IC50 values, range across tested cancer cell lines
MDA-MB-231 cells [10] = test: MitoTracker Red CMXRos flow cytometry (mitochondrial membrane potential), MDA-MB-231
[11] = test system: whole non-permeabilized A549 cells
[12] = test system: V79 Chinese hamster lung fibroblasts; test: MTT assay, V79 cells; assay type: cell-based; conditions: Cricetulus griseus, Fibroblast, 72 h, read-out: IC50 V79 (normal cells)
[13] = test system: HaCaT human immortal keratinocytes; test: cells; assay type: cell-based; conditions: 72 h, read-out: IC50 HaCaT (normal cells)

Structure (SMILES): CC[C@@H](C(=O)[C@@H](C)[C@@H](O)[C@H](C)[C@@H]1O[C@@H]([C@@H](CC)C(=O)O)CC[C@@H]1C)[C@H]1O[C@]2(C=C[C@H](n3cc(C[P+](c4ccccc4)(c4ccccc4)c4ccccc4)nn3)[C@]3(CC[C@@](C)([C@H]4CC[C@](O)(CC)[C@H](C)O4)O3)O2)[C@H](C)C[C@@H]1C [1a]
- mitochondrial ROS (mtROS) production (A549 cells): induced mtROS production
- Selectivity index (SI) HaCaT / PC3 [1]: 3.2
- Selectivity index (SI) V79 / PC3 [1]: 4
- Selectivity index (SI) HaCaT / SW620 [2]: 0.2
- Selectivity index (SI) V79 / SW620 [2]: 0.3
- Selectivity index (SI) HaCaT / A549 [3]: 1.3
- Selectivity index (SI) V79 / A549 [3]: 1.7
- Selectivity index (SI) HaCaT / SW480 [4]: 0.4
- Selectivity index (SI) V79 / SW480 [4]: 0.5
- Selectivity index (SI) HaCaT / MiaPaCa [5]: 0.5
- Selectivity index (SI) V79 / MiaPaCa [5]: 0.6
- IC50 [5]: 7.6 ± 1.3 µM
- mitochondrial ROS (mtROS) production (MDA-MB-231 cells [6]): induced mtROS production
- Selectivity index (SI) HaCaT / MDA-MB-231 [7]: 1.1
- Selectivity index (SI) V79 / MDA-MB-231 [7]: 1.4
- IC50 [7]: 3.4 ± 0.5 µM

Structure (SMILES): CCC1(C2OC(C3OC(O)(Cn4cc(C[P+](c5ccccc5)(c5ccccc5)c5ccccc5)nn4)C(C)CC3C)CC2C)CCC(C2(C)CCC3(CC(O)C(C)C(C(C)C(OC)C(C)C(=O)O)O3)O2)O1 (centres unmarked) [2a]
- cells positive for MTGreen fluorescence (MDA-MB-231 cells [8]): 67.4%
- IC50 [9]: 0.3 to 0.7 µM
- MTRed CMXRos positive stained cells (MDA-MB-231 cells [10]): 13.4%
- effect on oxygen flux (cellular respiration rate) [11]: only reduced baseline respiration at the highest tested concentration
- IC50 [12]: 5 ± 0.04 µM
- IC50 [13]: 0.6 ± 0.2 µM
- IC50 [5]: 0.3 ± 0.1 µM
- IC50 [7]: 0.7 ± 0.2 µM

Structure (SMILES): CCC1(C2OC(C3OC(O)(COC(=O)CCC(=O)OCCC[P+](c4ccccc4)(c4ccccc4)c4ccccc4)C(C)CC3C)CC2C)CCC(C2(C)CCC3(CC(O)C(C)C(C(C)C(OC)C(C)C(=O)OCCC[P+](c4ccccc4)(c4ccccc4)c4ccccc4)O3)O2)O1 (centres unmarked) [2f]
- mitochondrial ROS (mtROS) production (A549 cells): lack of electron transport chain ROS generation
- Selectivity index (SI) HaCaT / PC3 [1]: 0.2
- Selectivity index (SI) V79 / PC3 [1]: 2.3
- Selectivity index (SI) HaCaT / SW620 [2]: 0.1
- Selectivity index (SI) V79 / SW620 [2]: 1.4
- Selectivity index (SI) HaCaT / A549 [3]: 0.2
- Selectivity index (SI) V79 / A549 [3]: 2.5
- Selectivity index (SI) HaCaT / SW480 [4]: 0.2
- Selectivity index (SI) V79 / SW480 [4]: 1.9
- Selectivity index (SI) HaCaT / MiaPaCa [5]: 0.5
- Selectivity index (SI) V79 / MiaPaCa [5]: 5.3
- IC50 [5]: 0.6 ± 0.2 µM
- mitochondrial ROS (mtROS) production (MDA-MB-231 cells [6]): lack of electron transport chain ROS generation
- Selectivity index (SI) HaCaT / MDA-MB-231 [7]: 0.2
- Selectivity index (SI) V79 / MDA-MB-231 [7]: 2.3
- IC50 [7]: 1.4 ± 0.2 µM

Structure (SMILES): CCC1(C2OC(C3OC(O)(CNC(=O)CCC[P+](c4ccccc4)(c4ccccc4)c4ccccc4)C(C)CC3C)CC2C)CCC(C2(C)CCC3(CC(O)C(C)C(C(C)C(OC)C(C)C(=O)O)O3)O2)O1 (centres unmarked) [2e]
- Selectivity index (SI) HaCaT / SW620 [2]: 1.4
- effect on oxygen flux (cellular respiration rate) [11]: no observable impact on oxygen consumption
- IC50 [12]: > 100 µM
- IC50 [13]: 39.2 ± 5.6 µM
- Selectivity index (SI) HaCaT / SW480 [4]: 0.8
- IC50 [5]: > 100 µM
- IC50 [7]: > 100 µM

Structure (SMILES): CC[C@@]1([C@@H]2O[C@@H]([C@H]3O[C@@](O)(CO)[C@H](C)C[C@@H]3C)C[C@@H]2C)CC[C@H]([C@]2(C)CC[C@]3(C[C@H](O)[C@@H](C)[C@@H]([C@@H](C)[C@@H](OC)[C@H](C)C(=O)O)O3)O2)O1 [MON, Monensin A, reference compound]
- mitochondrial ROS (mtROS) production (A549 cells): no ROS generation
- Selectivity index (SI) HaCaT / PC3 [1]: 1.0
- Selectivity index (SI) V79 / PC3 [1]: 1.1
- Selectivity index (SI) HaCaT / SW620 [2]: 1.3
- Selectivity index (SI) V79 / SW620 [2]: 1.3
- Selectivity index (SI) HaCaT / A549 [3]: 1.3
- Selectivity index (SI) V79 / A549 [3]: 1.4
- IC50 [13]: 3.5 ± 1.4 µM
- Selectivity index (SI) HaCaT / SW480 [4]: 1.4
- Selectivity index (SI) V79 / SW480 [4]: 1.4
- Selectivity index (SI) HaCaT / MiaPaCa [5]: 3.2
- Selectivity index (SI) V79 / MiaPaCa [5]: 3.3
- mitochondrial ROS (mtROS) production (MDA-MB-231 cells [6]): no ROS generation
- Selectivity index (SI) HaCaT / MDA-MB-231 [7]: 0.7
- Selectivity index (SI) V79 / MDA-MB-231 [7]: 0.7
